{
  "source": "ChEMBL document CHEMBL3994651",
  "about": "“Physapubescin, a natural withanolide as a kidney-type glutaminase (KGA) inhibitor” (Bioorg Med Chem Lett, 2017)",
  "key": {"[1]": {"substrate": "CC(=O)O[C@H]1C[C@H]([C@H](C)[C@H]2C[C@]3(C)O[C@]3(C)[C@H](O)O2)[C@@]2(C)CC[C@H]3[C@@H](C[C@@H]4O[C@]45[C@@H](O)C=CC(=O)[C@]35C)[C@H]12", "settings": "Homo sapiens; 2.5 uM"}, "[2]": {"substrate": "CC(=O)O[C@H]1C[C@H]([C@H](C)[C@H]2C[C@]3(C)O[C@]3(C)[C@H](O)O2)[C@@]2(C)CC[C@H]3[C@@H](C[C@@H]4O[C@]45[C@@H](O)C=CC(=O)[C@]35C)[C@H]12", "settings": "Homo sapiens; 5 uM"}, "[3]": {"substrate": "CC(=O)O[C@H]1C[C@H]([C@H](C)[C@H]2C[C@]3(C)O[C@]3(C)[C@H](O)O2)[C@@]2(C)CC[C@H]3[C@@H](C[C@@H]4O[C@]45[C@@H](O)C=CC(=O)[C@]35C)[C@H]12", "settings": "Homo sapiens; 20 uM"}, "[4]": {"substrate": "CC(=O)O[C@H]1C[C@H]([C@H](C)[C@H]2C[C@]3(C)O[C@]3(C)[C@H](O)O2)[C@@]2(C)CC[C@H]3[C@@H](C[C@@H]4O[C@]45[C@@H](O)C=CC(=O)[C@]35C)[C@H]12", "settings": "Homo sapiens; 10 uM"}, "[5]": {"substrate": "CC(=O)O[C@H]1C[C@H]([C@H](C)[C@H]2C[C@]3(C)O[C@]3(C)[C@H](O)O2)[C@@]2(C)CC[C@H]3[C@@H](C[C@@H]4O[C@]45[C@@H](O)C=CC(=O)[C@]35C)[C@H]12", "settings": "Homo sapiens; 20 uM", "remark": "listed apart in the source"}, "[6]": {"substrate": "CC(=O)O[C@H]1C[C@H]([C@H](C)[C@H]2C[C@]3(C)O[C@]3(C)[C@H](O)O2)[C@@]2(C)CC[C@H]3[C@@H](C[C@@H]4O[C@]45[C@@H](O)C=CC(=O)[C@]35C)[C@H]12", "settings": "Homo sapiens; 2.5 uM", "remark": "listed apart in the source"}, "[7]": {"substrate": "CC(=O)O[C@H]1C[C@H]([C@H](C)[C@H]2C[C@]3(C)O[C@]3(C)[C@H](O)O2)[C@@]2(C)CC[C@H]3[C@@H](C[C@@H]4O[C@]45[C@@H](O)C=CC(=O)[C@]35C)[C@H]12", "settings": "Homo sapiens; 10 uM", "remark": "listed apart in the source"}, "[8]": {"substrate": "CC(=O)O[C@H]1C[C@H]([C@H](C)[C@H]2C[C@]3(C)O[C@]3(C)[C@H](O)O2)[C@@]2(C)CC[C@H]3[C@@H](C[C@@H]4O[C@]45[C@@H](O)C=CC(=O)[C@]35C)[C@H]12", "settings": "Homo sapiens; 5 uM", "remark": "listed apart in the source"}},
  "data": [
    {"protein": "Glutaminase kidney isoform, mitochondrial (Homo sapiens), O94925 (protein) MMRLRGSGMLRDLLLRSPAGVSATLRRAQPLVTLCRRPRGGGRPAAGPAAAARLHPWWGGGGWPAEPLARGLSSSPSEILQELGKGSTHPQPGVSPPAAPAAPGPKDGPGETDAFGNSEGKELVASGENKIKQGLLPSLEDLLFYTIAEGQEKIPVHKFITALKSTGLRTSDPRLKECMDMLRLTLQTTSDGVMLDKDLFKKCVQSNIVLLTQAFRRKFVIPDFMSFTSHIDELYESAKKQSGGKVADYIPQLAKFSPDLWGVSVCTVDGQRHSTGDTKVPFCLQSCVKPLKYAIAVNDLGTEYVHRYVGKEPSGLRFNKLFLNEDDKPHNPMVNAGAIVVTSLIKQGVNNAEKFDYVMQFLNKMAGNEYVGFSNATFQSERESGDRNFAIGYYLKEKKCFPEGTDMVGILDFYFQLCSIEVTCESASVMAATLANGGFCPITGERVLSPEAVRNTLSLMHSCGMYDFSGQFAFHVGLPAKSGVAGGILLVVPNVMGMMCWSPPLDKMGNSVKGIHFCHDLVSLCNFHNYDNLRHFAKKLDPRREGGDQRVKSVINLLFAAYTGDVSALRRFALSAMDMEQRDYDSRTALHVAAAEGHVEVVKFLLEACKVNPFPKDRWNNTPMDEALHFGHHDVFKILQEYQVQYTPQGDSDNGKENQTVHKNLDGLL", "values": [
      {"measurement": "Vmax (optical density/minute)", "setting": "[1]", "value": 0.0619},
      {"measurement": "Km", "setting": "[2]", "value": 2.73, "unit": "mM"},
      {"measurement": "Km", "setting": "[3]", "value": 5.83, "unit": "mM"},
      {"measurement": "Km", "setting": "[4]", "value": 3.59, "unit": "mM"},
      {"measurement": "Vmax (optical density/minute)", "setting": "[5]", "value": 0.0232},
      {"measurement": "Km", "setting": "[6]", "value": 2.58, "unit": "mM"},
      {"measurement": "Vmax (optical density/minute)", "setting": "[7]", "value": 0.0403},
      {"measurement": "Vmax (optical density/minute)", "setting": "[8]", "value": 0.0529}
    ]}
  ]
}
